Reference: patent EP4744648A1, “LIPOPEPTIDE-CONTAINING FAT-DISSOLVING PRODUCT, AND PREPARATION METHOD THEREFOR AND USE THEREOF” (Bloomage Biotechnology Corporation Limited, priority 2023, dated 2024)

Tested on: Mouse adipocyte cell line 3T3-F442A
Conditions: 24 h; for Relative growth rate (%): Example 2, 3T3-F442A

For CCCCCCCCCC(=O)N[C@@H](Cc1c[nH]c2ccccc12)C(=O)N[C@H](CC(N)=O)C(=O)N[C@@H](CC(=O)O)C(=O)N[C@@H]1C(=O)NCC(=O)N[C@@H](CCCN)C(=O)N[C@@H](CC(=O)O)C(=O)N[C@H](C)C(=O)N[C@@H](CC(=O)O)C(=O)NCC(=O)N[C@H](CO)C(=O)N[C@@H]([C@H](C)CC(=O)O)C(=O)N[C@@H](CC(=O)c2ccccc2N)C(=O)O[C@@H]1C [Daptomycin, reference compound], the “half maximal inhibitory concentrations IC50” value (3T3-F442A adipocytes, calculated from Table 2 curves) was 144.4 µg/mL, the “Relative growth rate (%)” value (0.01 mg/mL) was 86.04±3.93% and the “Relative growth rate (%)” value (0.04 mg/mL) was 77.87±3.87%. The “Relative growth rate (%)” value (0.08 mg/mL) was 74.12±1.16% and the “Relative growth rate (%)” value (0.16 mg/mL) was 43.11± 1.96%.

Read-outs that look alike come from different tables or passages of the source.
